Measurements published in paper PMC3605307 (2013).

Chains of the proteins cited; added tags and fusions are not shown. Residues count along the entry.
UniProt O14763, 58-184: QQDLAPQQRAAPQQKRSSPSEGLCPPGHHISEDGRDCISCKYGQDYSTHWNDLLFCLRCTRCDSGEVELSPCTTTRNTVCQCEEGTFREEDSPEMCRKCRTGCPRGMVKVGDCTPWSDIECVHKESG

Molecular target: Human TRAIL-R2-Fc fusion protein (wild type) (human, UniProt O14763 58-184)
Test: SPR

B1: TRAIL (TNF-related apoptosis inducing ligand) ectodomain (ligand)
chain: TNELKQMQDKYSKSGIACFLKEDDSYWDPNDEESMNSPCWQVKWQLRQLVRKMILRTSEETISTVQEKQQNISPLVRERGPQRVAAHITGTRGRSNTLSSPNSKNEKALGRKINSWESSRSGHSFLSNLHLRNGELVIHEKGFYYIYSQTYFRFQEEIKENTKNDKQMVQYIYKYTSYPDPILLMKSARNSCWSKDAEYGLYSIYQGGIFELKENDRIFVSVTNEHLIDMDHEASFFGAFLVG
Kd: 4 nM
